# Data: paper PMC7723054
# Some of the results follow.
# T1: LIN28A (human?, UniProt Q9H9Z2 1-209)
# T1 sequence: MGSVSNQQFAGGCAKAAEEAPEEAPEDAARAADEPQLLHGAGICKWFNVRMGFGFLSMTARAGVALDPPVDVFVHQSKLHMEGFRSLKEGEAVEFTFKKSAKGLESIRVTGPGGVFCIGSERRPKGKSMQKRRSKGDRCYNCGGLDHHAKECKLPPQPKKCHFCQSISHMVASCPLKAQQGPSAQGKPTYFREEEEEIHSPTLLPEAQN
# T2: CIRBP (Homo sapiens, UniProt Q14011 1-172)
# T2 sequence: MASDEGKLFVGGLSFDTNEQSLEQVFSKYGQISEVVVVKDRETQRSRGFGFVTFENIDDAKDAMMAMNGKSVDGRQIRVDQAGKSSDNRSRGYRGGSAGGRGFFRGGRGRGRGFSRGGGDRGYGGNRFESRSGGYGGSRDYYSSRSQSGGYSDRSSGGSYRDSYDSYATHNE
# T3: DHX36 (Homo sapiens, UniProt Q9H2U1 1-1008)
# T3 sequence: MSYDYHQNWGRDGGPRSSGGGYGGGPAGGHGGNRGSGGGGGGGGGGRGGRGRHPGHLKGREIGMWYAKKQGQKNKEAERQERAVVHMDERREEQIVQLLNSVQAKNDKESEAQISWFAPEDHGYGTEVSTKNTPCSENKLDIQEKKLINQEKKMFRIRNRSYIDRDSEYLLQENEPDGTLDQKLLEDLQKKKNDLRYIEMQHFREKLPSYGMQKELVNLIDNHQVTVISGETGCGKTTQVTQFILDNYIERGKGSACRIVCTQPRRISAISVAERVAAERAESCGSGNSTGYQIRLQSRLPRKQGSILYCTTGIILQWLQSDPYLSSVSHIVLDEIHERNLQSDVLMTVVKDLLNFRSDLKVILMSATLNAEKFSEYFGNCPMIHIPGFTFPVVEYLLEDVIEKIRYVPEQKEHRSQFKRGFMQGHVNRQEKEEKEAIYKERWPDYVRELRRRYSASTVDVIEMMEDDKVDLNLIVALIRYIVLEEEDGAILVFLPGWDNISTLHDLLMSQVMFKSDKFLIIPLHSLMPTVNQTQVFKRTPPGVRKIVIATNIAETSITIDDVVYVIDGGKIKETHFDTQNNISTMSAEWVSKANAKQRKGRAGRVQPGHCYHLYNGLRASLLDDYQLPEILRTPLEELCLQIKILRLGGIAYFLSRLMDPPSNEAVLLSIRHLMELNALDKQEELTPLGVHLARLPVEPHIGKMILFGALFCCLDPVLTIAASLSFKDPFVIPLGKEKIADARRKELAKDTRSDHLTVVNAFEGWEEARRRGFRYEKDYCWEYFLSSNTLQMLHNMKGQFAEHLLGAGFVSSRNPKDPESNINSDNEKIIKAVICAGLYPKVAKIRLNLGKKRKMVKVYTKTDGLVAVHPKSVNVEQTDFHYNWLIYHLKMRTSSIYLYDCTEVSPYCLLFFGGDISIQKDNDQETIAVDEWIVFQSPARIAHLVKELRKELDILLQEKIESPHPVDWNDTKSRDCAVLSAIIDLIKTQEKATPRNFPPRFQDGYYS
# B1: hsa-mir-4534 (structured_RNA)
# RNA: GGGAAGAGAAUAAAUGCCGUAUACCGACGGUGUACGAAGUUUCAGCAGCCAAAAUCACCAGGGAGCUGAAGCUUCGUGCAC
# B2: hsa-mir-6884 (structured_RNA)
# RNA: GGGAACAUGACACUGUUCGCUGUGCGGAGGUGUACGAAGUUUCAGCGUUGGCUCAAGAAAGGGAGAUAGAUGGUAGCCCGCUGAAGCUUCGUGCAC
# B3: hsa-mir-98 (structured_RNA)
# RNA: GGGACUGAGCGUUACGUGAACUAUACCUGGUGUACGAAGUUUCAGCAUUGUUGUGGGGUAGGGAUAUUAGGCCCCAAUUAGAAGAUAACUAUGCUGAAGCUUCGUGCAC
# B4: hsa-mir-1184-3_1184-2_1184-1 (structured_RNA)
# RNA: GGGAAGCUGAUCUCGCGGAUUACUAGCGGGUGUACGAAGUUUCAGCACAGUGGCCACAUCUCCACGCUGAAGCUUCGUGCAC
# B5: hsa-mir-5692c-2 (structured_RNA)
# RNA: GGGAGGUCCGUAGACACUCUACCACGUUGGUGUACGAAGUUUCAGCGAGUCCUAUUUAUUUUUAGGAUAUUAGGAAGCUGAAGCUUCGUGCAC
# B6: hsa-mir-603 (structured_RNA)
# RNA: GGGAGCGAGAUAGUAGUUUCCGAAAGUUGGUGUACGAAGUUUCAGCCUUCCCAUUUAAAAGUAAUGGCACAGCUGAAGCUUCGUGCAC
# B7: hsa-mir-6854 (structured_RNA)
# RNA: GGGACAUCGCCCAUGACGAAUGAAUCCGGGUGUACGAAGUUUCAGCUGCUGAUGUCAUCAGUCAUAACUUCUGCGGCUGAAGCUUCGUGCAC
# B8: hsa-mir-4306 (structured_RNA)
# RNA: GGGACGUAUGUAGAGGAUUACGCGCACAGGUGUACGAAGUUUCAGCUCCAGAGGCAUCCCUAACCCAGAAUCUUUUGACUGUCCUCUGGAGCUGAAGCUUCGUGCAC
# B9: hsa-mir-516b-1 (structured_RNA)
# RNA: GGGCCAAGAACUACCCGGACACCAAAACGGUGUACGAAGUUUCAGCAGCACUUUCUGUUUUGUGAAAGAAAAGAAAGUGCUGCUGAAGCUUCGUGCAC
# B10: hsa-mir-6850 (structured_RNA)
# RNA: GGGAAGUAGUACGAGCCUUGCAUGUGGCGGUGUACGAAGUUUCAGCCGGGGCGGGAGGGGAAGGGACGCCCGGCUGAAGCUUCGUGCAC
# B11: hsa-mir-210 (structured_RNA)
# RNA: GGGACAAGGAGUAUCGGUUCCAAAAUCCGGUGUACGAAGUUUCAGCACACUGCGCUGCCCCAGACCCACUGUGCUGAAGCUUCGUGCAC
# B12: hsa-mir-6747 (structured_RNA)
# RNA: GGGAACGGACGUCCAUUUAAACACGCCGGGUGUACGAAGUUUCAGCAGAACAUUCGUUCACUUUCCUGCUGAAGCUUCGUGCAC
# B13: hsa-mir-7515 (structured_RNA)
# RNA: GGGACUGCGUGUGGGGCGUAAAUAUACAGGUGUACGAAGUUUCAGCUUUAUGCCUGUUAGCAUGAAAAAAGAGGCUGAGAAGCUGAAGCUUCGUGCAC
# B14: hsa-mir-324 (structured_RNA)
# RNA: GGGAAUUGAAUGGGGUACCUCGCAAGCAGGUGUACGAAGUUUCAGCCAUUGGUGUAAAGCUGGAGACCCACUGGCUGAAGCUUCGUGCAC
# B15: hsa-mir-34a (structured_RNA)
# RNA: GGGACGGAGGGCUGUUUAUUAAGCCAACGGUGUACGAAGUUUCAGCGUUGUUGUGAGCAAUAGUAAGGAAGCAAUGCUGAAGCUUCGUGCAC
# B16: hsa-mir-4701 (structured_RNA)
# RNA: GGGAGAAGGCCGCAUAAAAUGUGUACUCGGUGUACGAAGUUUCAGCCCUUGUGAAUGUCGGGCAAUGGGCUGAAGCUUCGUGCAC
# B17: NEAT1_ParasoR_ID4 (structured_RNA)
# RNA: GGGAACACUCAAGCGGGAUAUAGCACUUGGUGUACGAAGUUUCAGCUUGAUGGGUUGGUUCCACAUCUUUGCAAUUGUGACUUGUACUGCCAUCAAGCUGAAGCUUCGUGCAC
# B18: hsa-mir-24-1 (structured_RNA)
# RNA: GGGAACGACACGCCUCAAAUACCGUCGGGGUGUACGAAGUUUCAGCAUCAGUUCUCAUUUUACACACUGGCGCUGAAGCUUCGUGCAC
# B19: hsa-mir-548h-5 (structured_RNA)
# RNA: GGGACCUGUGUAGUGGCGAUGCCUUUUCGGUGUACGAAGUUUCAGCUGUCAUUACUUUUAACUGUAGCUGAAGCUUCGUGCAC
# B20: hsa-mir-4436b-2_4436b-1 (structured_RNA)
# RNA: GGGAAGCGUACGAAGCACUCUCUGCUAGGGUGUACGAAGUUUCAGCCCUGCCCAAAUGGUGGAGCAGAUUCGAGGGGCAGGGCUGAAGCUUCGUGCAC
# B21: hsa-mir-301a (structured_RNA)
# RNA: GGGACCAUCGCAUCGUACGUAAAUCUGCGGUGUACGAAGUUUCAGCACUACUGUACUUUACAGCUAGCAGUGCUGAAGCUUCGUGCAC
# B22: hsa-mir-632 (structured_RNA)
# RNA: GGGCCGGAUAGACCCGUCUAGAAUGGAAGGUGUACGAAGUUUCAGCGCGGGGAACGAGGCCGUCGGCCAUUUUGUGGCUGAAGCUUCGUGCAC
# B23: hsa-mir-1244-1_1244-4_1244-2_1244-3 (structured_RNA)
# RNA: GGGAGUGCACAAUCCUAGUUGUCAACUGGGUGUACGAAGUUUCAGCUUGUGUAUGUACUUAGCUGUACUAUAGCUGAAGCUUCGUGCAC
# Molecular target: U1A (Homo sapiens, UniProt P09012)
# Experiment: FOREST: bead pull-down of RNA structure library v1, barcode microarray; U1A/LIN28A: 20 mM HEPES pH 7.5, 80 mM KCl, 20 mM NaCl, 10% glycerol, 2 mM DTT, 0.1 ug/uL BSA, 4 C; BG4/CIRBP/DHX36: 10 mM Tris-HCl pH 7.5, 100 mM KCl (or LiCl),; high values mean tight binding
row,Binder,binding signal
1,B1,1.11 z-score
2,B2,1.11 z-score
3,B3,1.1 z-score
4,B4,1.09 z-score
5,B5,1.09 z-score
6,B6,1.09 z-score
7,B7,1.08 z-score
8,B8,1.08 z-score
9,B9,1.07 z-score
10,B10,1.07 z-score
11,B11,2.48 z-score
12,B12,1.06 z-score
13,B13,1.06 z-score
14,B14,1.06 z-score
15,B15,1.06 z-score
16,B16,1.05 z-score
17,B17,1.05 z-score
18,B18,1.05 z-score
19,B19,1.05 z-score
20,B20,1.05 z-score
21,B21,1.05 z-score
22,B22,2.46 z-score
23,B23,1.05 z-score

# Molecular target: T1, LIN28A
# Experiment: as above
row,Binder,binding signal
1,B1,-0.465 z-score
2,B2,2.51 z-score
3,B3,3.59 z-score
4,B4,-0.0736 z-score
5,B5,-0.223 z-score
6,B6,-0.0962 z-score
7,B7,0.16 z-score
8,B8,0.487 z-score
9,B9,-1.04 z-score
10,B11,0.00358 z-score
11,B12,-0.545 z-score
12,B13,0.768 z-score
13,B14,1.28 z-score
14,B15,1.94 z-score
15,B16,0.54 z-score
16,B17,-0.787 z-score
17,B18,1.1 z-score
18,B19,-0.579 z-score
19,B20,0.995 z-score
20,B21,0.214 z-score
21,B22,0.371 z-score
22,B23,-0.784 z-score

# Molecular target: T2, CIRBP
# Experiment: as above
row,Binder,binding signal
1,B1,-0.538 z-score
2,B2,2.55 z-score
3,B3,2.71 z-score
4,B4,-0.722 z-score
5,B5,-0.0922 z-score
6,B6,0.238 z-score
7,B7,1.29 z-score
8,B8,-0.0225 z-score
9,B9,-0.372 z-score
10,B10,4.58 z-score
11,B11,0.181 z-score
12,B12,0.0736 z-score
13,B13,-1.54 z-score
14,B14,0.106 z-score
15,B15,0.596 z-score
16,B16,0.612 z-score
17,B17,-0.802 z-score
18,B18,-0.542 z-score
19,B19,-0.176 z-score
20,B20,0.847 z-score
21,B21,-0.179 z-score
22,B22,-0.64 z-score
23,B23,-1.83 z-score

# Molecular target: T3, DHX36
# Experiment: as above
row,Binder,binding signal
1,B1,-0.574 z-score
2,B2,2.49 z-score
3,B3,2.15 z-score
4,B4,-0.403 z-score
5,B5,-0.242 z-score
6,B6,-0.818 z-score
7,B7,-0.406 z-score
8,B8,1.13 z-score
9,B9,0.66 z-score
10,B10,6.24 z-score
11,B11,0.312 z-score
12,B12,-0.723 z-score
13,B13,0.125 z-score
14,B14,1.85 z-score
15,B15,0.922 z-score
16,B16,0.309 z-score
17,B17,-0.072 z-score
18,B18,-0.604 z-score
19,B19,-0.951 z-score
20,B20,0.79 z-score
21,B21,0.14 z-score
22,B22,1.01 z-score
23,B23,-1.26 z-score
